Test results taken from PMC10057977, “Use of In Vivo Imaging and Physiologically-Based Kinetic Modelling to Predict Hepatic Transporter Mediated Drug–Drug Interactions in Rats” (Pharmaceutics, 2023).

Key:
rOatp1b = target: T1, rOatp1b (Rattus norvegicus, UniProt Q9QZX8); type: in vivo; settings: ketoconazole 3 mg/kg iv, p = 0.006
T1 construct: Drug administration and MRI acquisition were performed on animals anesthetized by inhalation of isoflurane; from tissue; host or cells: liver of living male Wistar rats (Charles River Laboratories)
T1 sequence (Q9QZX8 1-687): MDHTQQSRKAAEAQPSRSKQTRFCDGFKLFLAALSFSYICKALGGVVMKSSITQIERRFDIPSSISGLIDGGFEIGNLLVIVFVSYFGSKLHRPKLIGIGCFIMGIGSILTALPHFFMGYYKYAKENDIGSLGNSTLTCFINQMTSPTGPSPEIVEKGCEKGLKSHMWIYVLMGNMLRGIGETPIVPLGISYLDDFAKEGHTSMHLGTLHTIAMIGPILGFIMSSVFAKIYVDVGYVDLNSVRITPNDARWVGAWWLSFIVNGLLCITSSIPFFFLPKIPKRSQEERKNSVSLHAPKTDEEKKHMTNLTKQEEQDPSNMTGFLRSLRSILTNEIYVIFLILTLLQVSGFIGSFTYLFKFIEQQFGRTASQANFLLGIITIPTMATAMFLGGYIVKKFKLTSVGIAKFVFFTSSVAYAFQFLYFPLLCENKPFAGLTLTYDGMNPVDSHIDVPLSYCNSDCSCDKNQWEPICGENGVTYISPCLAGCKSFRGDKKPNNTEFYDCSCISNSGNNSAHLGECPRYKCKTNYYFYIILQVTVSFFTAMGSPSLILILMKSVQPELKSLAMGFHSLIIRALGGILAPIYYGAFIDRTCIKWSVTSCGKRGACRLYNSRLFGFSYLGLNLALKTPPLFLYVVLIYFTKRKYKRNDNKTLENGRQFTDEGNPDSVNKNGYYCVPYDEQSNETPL

MRP2 = settings: words in supplement S1.4; cited from earlier work

SMILES: CC(=O)N1CCN(c2ccc(OCC3COC(Cn4ccnc4)(c4ccc(Cl)cc4Cl)O3)cc2)CC1 (centres unmarked) [Ketoconazole]
- relative change in gadoxetate khe vs control (rOatp1b): −65%
- MRP2 inhibition in vitro (MRP2): did not inhibit
